Reference: ChEMBL document CHEMBL5104188, “Discovery and Characterization of Synthesized and FDA-Approved Inhibitors of Clostridial and Bacillary Collagenases” (J Med Chem, 2022)
Calls of active or inactive are those of the source. The calls are words filed in the database; no cut-off is given here.

Target: Collagenase ColQ1 (Bacillus cereus) (UniProt B9J3S4)
Assay: Inhibition of full length Bacillus cereus ColQ1 assessed as reduction in Col 1 cleavage at 12.5 uM incubated for 3 hrs by SDS-PAGE analysis

Structure (SMILES): O=P(O)(O)c1nc2ccc(Br)cc2nc1P(=O)(O)O
- inhibition: Active
